Data: PubChem BioAssay AID504898 (Southern Research Specialized Biocontainment Screening …, 2011)

Tested on: M. tuberculosis H37Rv growth inhibition, glycerol-free medium
Test: Mycobacterium tuberculosis H37Rv growth inhibition, glycerol free medium, confirmatory dose response (AID 504898)

CO[C@H]1/C=C/O[C@@]2(C)Oc3c(C)c(O)c4c(O)c(c(C=NN5CCN(C)CC5)c(O)c4c3C2=O)NC(=O)/C(C)=C\C=C\[C@H](C)[C@H](O)[C@@H](C)[C@@H](O)[C@@H](C)[C@H](OC(C)=O)[C@@H]1C
IC90: 0.013 µM | IC50 (measured here: M. tuberculosis growth IC50): 0.009 µM
